How the values were obtained:
[1] = biological target: human Sirt1 (Homo sapiens, UniProt Q96EB6); assay: Homogeneous ZMAL-based fluorescence assay, Sirt1; details: read-out: IC50 Sirt1; 3rd round
Protocol: (§1) Recombinant human Sirt5_37−310 was purchased readily in Tris Buffer [25 mM Tris, 100 mM NaCl, 5 mM DTT, 10% glycerol (v/v)] from Enzo Life Sciences (NY, USA). Human Sirt3_118−395 was expressed and purified as described previously ([54]). For expression of human Sirt1_134−747 and Sirt2_56−356 chemically competent cells of E. coli BL21 Star (DE3) were transformed with the expression vectors pET30S-hSirt1_134−747 or pET30S-hSirt2_56−356. Bacteria were grown at 37°C in 2×YT medium supplemented with 50 μg·mL^−1 of kanamycin to an OD600 of 0.6. Then isopropyl-β-D-1-thiogalactopyranoside (IPTG) was added to a final concentration of 1 mM to induce gene expression. After further cultivation at 20°C for 12 h, the cells were harvested by centrifugation for 15 min at 5,000 g. The cells were resuspended in lysis buffer [100 mM Tris/HCl buffer at pH 8.0, 150 mM NaCl and 10% (v/v) glycerol] and disrupted by ultrasonication (Branson Digital Sonifier 250) at 70% amplitude for 10 min (3 s working, 10 s pause). The crude extract was cleared by centrifugation at 100,000 g for 1 h, and the supernatant was loaded onto a Strep-Tactin Superflow cartridge (5 ml bed volume, IBA Lifescience, Germany). Target proteins were eluted with lysis buffer containing 5 mM D-Desthiobiotin (IBA Lifescience, Germany) and further separated by size-exclusion chromatography (Superdex S200 26/60, GE Healthcare, IL, USA) equilibrated in Tris/HCl buffer (20 mM, 150 mM NaCl, pH 8.0). Pure protein was concentrated by ultrafiltration, flash-frozen in liquid nitrogen and stored at −80°C until further use. Identity as well as purity were verified by SDS-PAGE ([55]) and protein concentration was determined by the bicinchoninic acid (BCA) method, using bovine serum albumin (BSA) as a standard ([56]). Deacetylase activity was confirmed to be NAD^+-dependent and could be inhibited with the physiological sirtuin inhibitor nicotinamide.
(§2) All compounds were tested in the trypsin-coupled high-throughput ZMAL-assay in black 96-well plates (OptiPlateTM−96F, black, 96 well, Pinch bar design, PerkinElmer, USA), using ZMAL (Z-Lys(acetyl)-AMC) as a substrate ([57]). Sirt1_134−747, Sirt2_56−356, and Sirt3_118−395 were mixed with 5 μL substrate (10.5 μM final assay concentration, diluted from a […] stock in DMSO) and 3 μL Inhibitor in DMSO at various concentrations or DMSO as a control [final DMSO concentration 5% (v/v)]. The mixture was supplemented with assay buffer (50 mM Tris/HCl, 137 mM NaCl, 2.7 mM KCl, 1 mM MgCL2, pH 8.0) to a total volume of 55 μL. Enzyme concentration was adjusted to get a final conversion of 20–30%. Addition of 5 μL NAD^+ (6 mM in assay buffer, final assay concentration of 500 μM) initiated the catalytic reaction and the plates were incubated at 37°C for 4 h with agitation at 140 rpm. The catalytic reaction was stopped by addition of 60 μL stop solution [50 mM Tris, 100 mM NaCl, 6.7% (V/V) DMSO, 5.5 U/μL trypsin, 8 μM nicotinamide, pH 8.0]. […] Afterwards, fluorescence intensity was measured in a microplate reader (λEx = 390 nm, λEm = 460 nm, BMG POLARstar Optima, BMG Labtech, Germany). An enzyme-free blank control and a 100% conversion control containing AMC instead of ZMAL were measured in addition. Inhibition was calculated in % in relation to a DMSO control after blank signal subtraction and IC50 values were determined using a non-linear regression to fit the dose-response curve with OriginPro 9G (OriginLab, USA). […]

Amino acid sequences for entries named in this document (tags omitted). Residues count along the entry.
UniProt Q96EB6, 134-747 limits assumed: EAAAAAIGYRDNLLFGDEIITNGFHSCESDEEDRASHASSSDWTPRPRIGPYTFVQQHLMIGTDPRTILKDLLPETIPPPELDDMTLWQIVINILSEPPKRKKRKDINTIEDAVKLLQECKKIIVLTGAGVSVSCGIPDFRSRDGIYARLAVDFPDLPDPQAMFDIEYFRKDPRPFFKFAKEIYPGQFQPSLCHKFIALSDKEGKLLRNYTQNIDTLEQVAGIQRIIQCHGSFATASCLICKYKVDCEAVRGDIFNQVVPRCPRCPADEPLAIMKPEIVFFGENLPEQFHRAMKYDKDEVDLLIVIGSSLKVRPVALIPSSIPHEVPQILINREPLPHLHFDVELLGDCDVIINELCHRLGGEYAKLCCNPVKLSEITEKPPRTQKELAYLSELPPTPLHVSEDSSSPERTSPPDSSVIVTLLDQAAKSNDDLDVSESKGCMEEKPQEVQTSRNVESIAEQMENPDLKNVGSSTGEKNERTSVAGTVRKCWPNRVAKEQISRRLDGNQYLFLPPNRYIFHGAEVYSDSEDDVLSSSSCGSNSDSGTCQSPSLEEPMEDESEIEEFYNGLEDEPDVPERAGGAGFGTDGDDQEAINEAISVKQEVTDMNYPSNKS
UniProt Q8IXJ6, 56-356 limits assumed: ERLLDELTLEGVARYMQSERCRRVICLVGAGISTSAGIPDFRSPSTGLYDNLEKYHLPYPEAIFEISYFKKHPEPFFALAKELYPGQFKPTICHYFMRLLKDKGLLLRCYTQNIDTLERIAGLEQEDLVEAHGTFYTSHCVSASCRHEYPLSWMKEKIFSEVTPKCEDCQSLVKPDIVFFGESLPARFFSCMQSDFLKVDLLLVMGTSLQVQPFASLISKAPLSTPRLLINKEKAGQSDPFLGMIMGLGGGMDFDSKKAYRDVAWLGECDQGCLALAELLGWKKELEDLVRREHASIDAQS
UniProt Q9NTG7, 118-395 limits assumed: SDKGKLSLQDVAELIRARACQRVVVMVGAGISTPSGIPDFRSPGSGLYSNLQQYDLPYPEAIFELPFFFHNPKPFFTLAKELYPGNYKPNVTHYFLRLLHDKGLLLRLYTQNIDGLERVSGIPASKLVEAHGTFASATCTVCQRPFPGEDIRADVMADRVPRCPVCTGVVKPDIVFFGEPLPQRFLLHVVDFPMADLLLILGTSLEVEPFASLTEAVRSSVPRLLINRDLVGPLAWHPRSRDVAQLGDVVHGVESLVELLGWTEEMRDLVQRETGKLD

[2] = biological target: human Sirt2 (Homo sapiens, UniProt Q8IXJ6); assay: Homogeneous ZMAL-based fluorescence assay, Sirt2; details: 3rd round
Protocol: as §1, §2

[3] = biological target: human Sirt3 (Homo sapiens, UniProt Q9NTG7); assay: Homogeneous ZMAL-based fluorescence assay, Sirt3; details: 3rd round
Protocol: as §1, §2

| IC50 [1] [µM] | % inhibition @ 50 μM Sirt2 [2] | % inhibition @ 50 μM Sirt3 [3] | Compound |
| --- | --- | --- | --- |
| 2.8 | n.i. (no inhibition (<10%)) | n.i. (no inhibition (<10%)) | CCC(=O)Nc1nnc(SCC(=O)Nc2cccc(SC#N)c2)s1 |
| 5.1 | n.i. (no inhibition (<10%)) | n.i. (no inhibition (<10%)) | N#CSc1cccc(NC(=O)CSc2nc3ccccc3[nH]2)c1 |
| 6.4 | n.i.^* (no inhibition (<10%)) | n.i. (no inhibition (<10%)) | N#CSc1cccc(NC(=O)CSc2nc3ccccc3s2)c1 |
| 5.3 | n.i. (no inhibition (<10%)) | n.i. (no inhibition (<10%)) | N#CSc1cccc(NC(=O)CSc2nc3ccccc3o2)c1 |
| 9.4 | n.i. (no inhibition (<10%)) | n.i. (no inhibition (<10%)) | N#CSc1cccc(NC(=O)CSc2nc[nH]n2)c1 |

— publication PMC7203344, “Sirtuin 1 Inhibiting Thiocyanates (S1th)—A New Class of Isotype Selective Inhibitors of NAD^+ Dependent Lysine Deacetylases” (Frontiers in Oncology, 2020)
